Measured values from patent US10562957B2, “Albumin-purification method comprising a nanofiltration step, solution, and composition for therapeutic use containing the same” (LABORATOIRE FRANCAIS DU FRACTIONNEMENT ET DES …, priority 2004, dated 2020).

Columns and labels:
[1] = Equilibrium dialysis: binding of [^14C]diazepam by albumin compositions; settings: for Ka [^14C]diazepam: binding constant (Ka) of diazepam on the albumin, equilibrium dialysis, phosphate buffer pH 7.4; for Percentage of albumin-bound [^14C] diazepam: albumin 2.5 g/L, pH 7.4, average of 5 tests
Experimental: (§1) For that purpose, three solutions A4 (Example 3) are provided, one of which has been nanofiltered under the conditions of the invention. These solutions are then processed into pharmaceutical formulations in a 0.07 M phosphate buffer, pH 7.4, to give albumin compositions, A′4, A″4 and A″′4, with concentrations of 2.5 g/L. The albumin compositions A″4 and A″′4, not nanofiltered, are pasteurised in the presence of sodium caprylate, respectively. A sample of 1 mL is taken from each of the compositions, and a volume of between 10 μL and 1 000 μL of a parent alcohol-based solution of [^14C]warfarine and [^14C]diazepam at 0.1 M respectively, two active ingredients of the respective class of anticoagulants and neurotropes, is added to the albumin compositions considered in order to provide variable concentrations in these active ingredients. The mixture is then homogenised.
(§2) The study of the properties of albumin in binding the two above active ingredients is based on the methodology of equilibrium dialysis, known to those skilled in the art, and whose principle is summarised below. A dialysis device including a cell with two compartments separated by a suitable dialysis membrane is obtained. One volume V of an albumin/active ingredient mixture is introduced into compartment 1 and the same volume V of dialysis buffer (phosphate buffer, as defined above) is introduced into compartment 2. Once the equilibrium is reached, after a few hours, compartment 1 contains albumin-bound and unbound active ingredient and compartment 2 contains unbound active ingredient. Some samples are taken from each compartment 1 and 2 and radioactivity is measured by liquid scintillation. These measurements determine the respective concentrations in albumin-bound and unbound active ingredients.
(§3) Table 10 gives the percentages of albumin-bound [^14C]diazepam obtained with compositions A′4, A″4 and A″′4 respectively, in which increasing volumes of active ingredient have been added. […] The results are shown as the average value of 5 tests.

[2] = Equilibrium dialysis: binding of [^14C]warfarine by albumin compositions; settings: for Ka [^14C]warfarine: binding constant (Ka) of warfarine on the albumin, equilibrium dialysis, phosphate buffer pH 7.4; for Percentage of albumin-bound [^14C] warfarine: albumin 2.5 g/L, pH 7.4, average of 5 tests
Experimental: as §1, §2, §3

[3] = tested on: bacteriophage virus Phi-X 174; experiment: Viral reduction by nanofiltration of albumin solutions infected with bacteriophage; parameters: species or system bacteriophage Phi-X 174; settings: albumin 20 g/L
Text: Once the filtration of a predetermined volume of albumin is achieved, the filter inlet is closed. For rinsing, one volume of purified water for injection (PWI) is introduced into the repressurised vessel 12, and the filter is flushed out. The filtrate is collected until a perceptible reduction in optical density which is monitored on the recording device 16. The downstream circuit is then flushed out to collect the finished filtrate. Samples are taken from the filtrate and submitted to subsequent analytic tests such as polymer assays, virus titrations, etc. The duration of filtration of one volume of albumin solution required to provide a fixed protein load is also measured, and the filtration yield is determined as the quotient between the albumin amount contained in the filtrate and in the retentate.
To show the influence of variations in the working conditions of the nanofiltration (filter surface area, pressure and temperature) and of the physicochemical parameters of the albumin solutions (pH, buffer composition), on the rate of viral reduction, viruses are introduced into different solutions of albumin A (20 g/L) which are submitted to nanofiltration tests. The tests are carried out by infecting the albumin solutions with bacteriophage virus Phi-X 174, suspensions of which are obtained in accordance with AFNOR Standard NFT 72-181 (December 1989). This virus is a good marker for the 15-nm filter as its size is between 25 and 30 nm, which corresponds to the non-enveloped viruses that are transmissible to humans, such as parvovirus B19, the inactivation by pasteurisation of which is not satisfactory.

A′4: albumin composition 2.5 g/L in 0.07 M phosphate buffer pH 7.4 from solution A4 nanofiltered without stabiliser
Ka [^14C]diazepam [1]: 187 mM⁻¹
Percentage of albumin-bound [^14C] diazepam ([1]; total [^14C]diazepam 1.68 ± 0.06 μm): 80.9 ± 1.46%
Percentage of albumin-bound [^14C] diazepam ([1]; total [^14C]diazepam 4.17 ± 0.28 μm): 82.34 ± 1.92%
Percentage of albumin-bound [^14C] diazepam ([1]; total [^14C]diazepam 8.04 ± 0.24 μm): 78.08 ± 1.83%
Percentage of albumin-bound [^14C] diazepam ([1]; total [^14C]diazepam 40.09 ± 1.28 μm): 57.18 ± 2.14%
Percentage of albumin-bound [^14C] diazepam ([1]; total [^14C]diazepam 65.27 ± 3.46 μm): 48.58 ± 1.49%
Percentage of albumin-bound [^14C] diazepam ([1]; total [^14C]diazepam 115.02 ± 4.83 μm): 36.38 ± 1.69%
Ka [^14C]warfarine [2]: 215 mM⁻¹
Percentage of albumin-bound [^14C] warfarine ([2]; total [^14C]warfarine 1.99 ± 0.19 μm): 93.32 ± 0.49%
Percentage of albumin-bound [^14C] warfarine ([2]; total [^14C]warfarine 10.12 ± 0.71 μm): 91.75 ± 0.75%
Percentage of albumin-bound [^14C] warfarine ([2]; total [^14C]warfarine 34.29 ± 2.28 μm): 83.43 ± 1.11%
Percentage of albumin-bound [^14C] warfarine ([2]; total [^14C]warfarine 62.73 ± 3.55 μm): 71.74 ± 1.20%
Percentage of albumin-bound [^14C] warfarine ([2]; total [^14C]warfarine 103.66 ± 4.24 μm): 55.34 ± 2.94%
Percentage of albumin-bound [^14C] warfarine ([2]; total [^14C]warfarine 123.43 ± 8.07 μm): 47.83 ± 2.03%

albumin A: albumin from fractionation of human plasma according to Kistler et al.; reference solution 20 g/L, pH 7, 9 g/L NaCl
Viral reduction ([3]; 15-nm filter 0.001 m^2, 0.2 bar, 35 ° C., 280 mosm, NaCl: 0.15 M, pH 7.2): >5.0 Δ log
Viral reduction ([3]; 15-nm filter 0.001 m^2, 0.5 bar, 26 ° C., 280 mosm, NaCl: 0.15 M, pH 7.2): >5.5 Δ log
Viral reduction ([3]; 15-nm filter 0.001 m^2, 0.5 bar, 35 ° C., 280 mosm, NaCl: 0.15 M, Tween ®80: 0.06%, pH 7.2): >6.5 Δ log
Viral reduction ([3]; 15-nm filter 0.001 m^2, 0.5 bar, 35 ° C., 280 mosm, NaCl: 0.15 M, pH 4.1): >6.0 Δ log
Viral reduction ([3]; 15-nm filter 0.001 m^2, 0.5 bar, 35 ° C., 280 mosm, NaCl: 0.15 M, pH 7.2): 6.5 Δ log
Viral reduction ([3]; 15-nm filter 0.001 m^2, 0.5 bar, 35 ° C., 335 mosm, Na2SO4: 0.15 M, pH 7.2): 3.7 Δ log
Viral reduction ([3]; 15-nm filter 0.001 m^2, 0.5 bar, 35 ° C., 555 mosm, NaCl: 0.30 M, pH 7.2): 4.2 Δ log
Viral reduction ([3]; 15-nm filter 0.001 m^2, 0.5 bar, 35 ° C., 610 mosm, NaCl: 0.15 M, Sucrose: 100 g/L, pH 7.2): >6.3 Δ log
Viral reduction ([3]; 15-nm filter 0.001 m^2, 1.0 bar, 35 ° C., 280 mosm, NaCl: 0.15 M, pH 7.2): 4.9 Δ log
Viral reduction ([3]; 15-nm filter 0.01 m^2, 0.5 bar, 35 ° C., 280 mosm, NaCl: 0.15 M, pH 7.2): 5.9 Δ log

A″′4: second albumin A batch, composition 2.5 g/L, not nanofiltered, pasteurised in the presence of sodium caprylate
Ka [^14C]diazepam [1]: 3.35 mM⁻¹
Percentage of albumin-bound [^14C] diazepam ([1]; total [^14C]diazepam 1.23 ± 0.09 μm): 38.47 ± 1.88%
Percentage of albumin-bound [^14C] diazepam ([1]; total [^14C]diazepam 2.91 ± 0.21 μm): 40.93 ± 4.83%
Percentage of albumin-bound [^14C] diazepam ([1]; total [^14C]diazepam 11.55 ± 0.19 μm): 37.85 ± 1.25%
Percentage of albumin-bound [^14C] diazepam ([1]; total [^14C]diazepam 44.98 ± 3.14 μm): 34.96 ± 0.6%
Percentage of albumin-bound [^14C] diazepam ([1]; total [^14C]diazepam 86.09 ± 5.01 μm): 33.04 ± 1.17%
Percentage of albumin-bound [^14C] diazepam ([1]; total [^14C]diazepam 107.97 ± 9.43 μm): 30.74 ± 1.78%
Ka [^14C]warfarine [2]: 118 mM⁻¹
Percentage of albumin-bound [^14C] warfarine ([2]; total [^14C]warfarine 1.69 ± 0.08 μm): 88.58 ± 0.32%
Percentage of albumin-bound [^14C] warfarine ([2]; total [^14C]warfarine 8.33 ± 0.30 μm): 87.66 ± 0.28%
Percentage of albumin-bound [^14C] warfarine ([2]; total [^14C]warfarine 31.65 ± 0.72 μm): 80.39 ± 0.89%
Percentage of albumin-bound [^14C] warfarine ([2]; total [^14C]warfarine 57.17 ± 3.81 μm): 71.01 ± 1.68%
Percentage of albumin-bound [^14C] warfarine ([2]; total [^14C]warfarine 104.64 ± 6.28 μm): 55.04 ± 0.68%
Percentage of albumin-bound [^14C] warfarine ([2]; total [^14C]warfarine 127.98 ± 4.83 μm): 49.77 ± 2.66%

A″4: albumin composition 2.5 g/L, phosphate buffer pH 7.4, not nanofiltered, pasteurised in the presence of sodium caprylate
Ka [^14C]diazepam [1]: 4.2 mM⁻¹
Percentage of albumin-bound [^14C] diazepam ([1]; total [^14C]diazepam 1.09 ± 0.23 μm): 34.46 ± 2.04%
Percentage of albumin-bound [^14C] diazepam ([1]; total [^14C]diazepam 5.52 ± 0.53 μm): 32.26 ± 1.34%
Percentage of albumin-bound [^14C] diazepam ([1]; total [^14C]diazepam 21.95 ± 0.42 μm): 31.00 ± 0.93%
Percentage of albumin-bound [^14C] diazepam ([1]; total [^14C]diazepam 42.84 ± 5.67 μm): 31.85 ± 2.99%
Percentage of albumin-bound [^14C] diazepam ([1]; total [^14C]diazepam 85.00 ± 13.6 μm): 30.12 ± 2.00%
Percentage of albumin-bound [^14C] diazepam ([1]; total [^14C]diazepam 109.79 ± 10.96 μm): 29.12 ± 2.67%
Ka [^14C]warfarine [2]: 135 mM⁻¹
Percentage of albumin-bound [^14C] warfarine ([2]; total [^14C]warfarine 1.71 ± 0.19 μm): 88.18 ± 0.82%
Percentage of albumin-bound [^14C] warfarine ([2]; total [^14C]warfarine 8.35 ± 1.13 μm): 87.61 ± 0.84%
Percentage of albumin-bound [^14C] warfarine ([2]; total [^14C]warfarine 30.97 ± 2.98 μm): 81.14 ± 2.07%
Percentage of albumin-bound [^14C] warfarine ([2]; total [^14C]warfarine 54.40 ± 10.02 μm): 73.24 ± 3.46%
Percentage of albumin-bound [^14C] warfarine ([2]; total [^14C]warfarine 102.08 ± 14.70 μm): 57.02 ± 4.36%
Percentage of albumin-bound [^14C] warfarine ([2]; total [^14C]warfarine 119.90 ± 6.96 μm): 53.11 ± 3.46%
